Here are results for six compounds from patent US12043613B2, “Inhibitors of SARM1” (Disarm Therapeutics, Inc., priority 2020, dated 2024).

Chains of the proteins cited; added tags and fusions are not shown. A line that says so, or that is headed by a name, gives the form on record, which may keep a tag or linker. Residues count along the entry.
UniProt Q6SZW1, 28-724 with tags or gaps limits assumed: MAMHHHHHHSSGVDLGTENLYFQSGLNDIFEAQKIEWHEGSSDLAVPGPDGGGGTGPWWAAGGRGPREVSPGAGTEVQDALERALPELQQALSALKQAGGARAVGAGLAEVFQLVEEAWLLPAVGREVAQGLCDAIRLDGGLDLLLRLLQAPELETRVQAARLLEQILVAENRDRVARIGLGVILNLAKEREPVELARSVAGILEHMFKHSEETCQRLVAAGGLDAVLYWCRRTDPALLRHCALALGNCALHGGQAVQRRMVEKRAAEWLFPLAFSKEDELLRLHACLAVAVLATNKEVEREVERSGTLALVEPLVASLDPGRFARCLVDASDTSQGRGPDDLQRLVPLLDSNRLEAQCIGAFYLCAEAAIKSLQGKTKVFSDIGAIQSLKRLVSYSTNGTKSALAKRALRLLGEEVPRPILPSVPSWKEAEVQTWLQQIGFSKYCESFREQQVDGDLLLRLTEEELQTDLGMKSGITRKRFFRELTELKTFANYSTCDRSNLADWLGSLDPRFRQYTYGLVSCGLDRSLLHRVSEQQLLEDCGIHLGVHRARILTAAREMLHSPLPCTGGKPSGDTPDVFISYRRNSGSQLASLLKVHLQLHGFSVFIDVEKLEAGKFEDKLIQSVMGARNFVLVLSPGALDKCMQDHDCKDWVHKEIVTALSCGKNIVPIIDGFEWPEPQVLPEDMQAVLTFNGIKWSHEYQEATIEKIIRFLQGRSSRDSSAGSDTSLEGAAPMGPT

What is called IC50 is the midpoint of a concentration-inhibition curve.

Structures are written as SMILES.

This assay addresses SARM1 (ARM-SAM-TIR, full length SARM1) (Homo sapiens, UniProt Q6SZW1). As to conditions: read-out: SARM1 IC50; ARM-SAM-TIR lysate 5 μg/mL from NRK1-HEK293T cells, 2 h pre-incubation, 5 uM NAD+, 2 hr room temperature.
Take `O=C1C(Cc2ccc(Cl)cc2)CCN1c1cc(-c2ccncc2)n[nH]1` (single isomer, unassigned): the half-maximal inhibitory concentration (IC50) is below 0.05 µM. The value for `O=C1C(Cc2ccc(Cl)c(F)c2)CCN1c1cc(-c2ccncc2)n[nH]1` (single isomer, unassigned) was below 0.05 µM. The value for `N#Cc1c(-c2ccncc2)n[nH]c1N1CCC(Cc2ccc(F)c(F)c2)C1=O` (single isomer, unassigned) was above 1 µM; that for `O=C1C(Cc2ccc(Cl)c(F)c2)CCCN1c1nc(-c2ccncc2)n[nH]1` (single isomer, unassigned) was below 0.05 µM. For `O=C1C(Cc2ccc(Cl)nc2)CCN1c1cc(-c2ccncc2)n[nH]1` (single isomer, unassigned) the value was below 0.05 µM.

As to `O=C1C(Cc2ccc(Cl)nc2)CCN1c1[nH]nc(-c2ccncc2)c1F` (single isomer, unassigned), the IC50 is below 0.05 µM.
